Assay results taken from article PMC11053023 (2024).

Target: FEM1B-EB-EC ternary complex (human, UniProt Q9UK73 1-627; Q15370 1-118; Q15369 17-112)
Experiment: ITC

Binder | Kd
KKHSLDLLSKERLRHLSP [SUMO-(GGGS)2-CCDC89 352-374 Δ5] | 2.1 µM
GGGSGGGSKKHSLDLLSKERELNGKLRHLSL [CCDC89 C-degron P-1L, SUMO fusion] | 6.7 µM
GGGSGGGSKKHSLDLLSKERELNGKLRHLSQ [CCDC89 C-degron P-1Q, SUMO fusion] | 6.7 µM

Further binders by falling Kd, results first:

Kd | Binder
46 µM | GGGSGGGSKKHSLDLLSKERELNGKLRHLSA [CCDC89 C-degron P-1A, SUMO fusion]
10.6 µM | GGGSGGGSDGWIRVSSDNVADLHEKYSGSTA [PSMB5 C-degron P-1A, SUMO fusion]
1.1 µM | KKHSLDLLSKERELLRHLSP [SUMO-(GGGS)2-CCDC89 352-374 Δ3]
